UUG fidelity: alters start codon recognition fidelity in yeast. S. cerevisiae UUG-firefly luciferase reporter, luminescence/redox ratio. AID 602363. activity score, % at 18.7 µM. hit rate 0.13% among 350,000;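 active = replicate mean at a twofold rise or more, about +100% in these data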;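 note: firefly luciferase made from a UUG start codon reports start codon fidelity; reporter light over untreated wells divided by growth signal over untreated wells; some hits fall short of that in this replicate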
Exocytosis inh: lytic granule exocytosis inhibition | TALL-104 LAMP-1 surface exposure, flow cytometry; cells stimulated with thapsigargin and PMA | hit rate 0.66% among 360,000 | inhibition, % at 10 µM;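 active means inhibition above about 55%, limit read from the data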
PKA-R2B activ: activators of human PKA-R2B complex | P22694+P31323 | PKA-R2B holoenzyme dissociation, Cy5-IP20 fluorescence polarization; R2B truncated from residue 108, S112A mutant; 0% DMSO only, 100% 113 µM cGMP | activation, % at 11.4 µM | hit rate 0.079% among 340,000 | AID 504700;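 active means activation above a cutoff set at the mean over all compounds plus 3 SD, cut at about 18% in these data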;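 further: higher means more holoenzyme dissociation and a rise in polarization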
ABCB6 inh 2: inhibitors of human ABC transporter ABCB6. Q9NP58. K562-ABCB6 porphyrin accumulation, flow cytometry, 1 h; hits give low values. fluorescence ratio to DMSO, % at 10 µM. hit rate 0.19% among 360,000. AID 602162;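 active means fluorescence ratio to DMSO below 75%, the collection mean minus 3 SD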;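 further: signal is porphyrin accumulated inside mitochondria; lower ratio means ABCB6 inhibition with less porphyrin fluorescence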
pCIP destab: compounds decreasing mouse p/CIP protein stability | Q05BA5 | F442A p/CIP-EGFP cells, EGFP fluorescence, 16 h | decrease of EGFP signal, % at 10 µM | hit rate 0.01% among 290,000 | AID 1984;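 active means EGFP signal decrease of at least 30% at 10 µM or well 3 SD below plate mean, unless failing retest; inactive means the rest, including hits failing retest or dose response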
PKA-R1A act: activates the PKA-R1A holoenzyme complex; activation, % at 11.4 µM; hit rate 0.083% among 340,000; P00514+P68181; PKA-R1A dissociation, Cy5-IP20 fluorescence polarization; scaled: DMSO 0%, 113 µM cGMP 100%;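 active means percent activation above the mean of all tested compounds plus 3 SD, cut at about 19% in these data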;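 further: higher means more PKAc released from R1A so a rise in polarization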
ABCB6 blocker 1: blocks the human ABCB6 transporter. AID 602430. 700 tested, under 10 active. ratio response (% of DMSO), % at 10 µM. shares compounds with ABCB6 inh 2. K562-ABCB6 porphyrin accumulation, flow cytometry, 1 h; hits give low values;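 active means repeat-averaged ratio response below 75% of DMSO, the collection mean minus 3 SD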;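 further: median porphyrin fluorescence at 575 nm with 488 nm excitation from mitochondria; lower ratio means less porphyrin signal so ABCB6 inhibition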
Large screens that a line does not name were inactive (follow-up assays come after a bar, where they were run). This is a sample that favours compounds with a hit; in the whole collection about 0.94% have one here.

CSc1ccc(CN2C(=O)C(C)Oc3c(C(C)=O)cccc32)cc1 (stereo not drawn)	none (no result: PKA-R2B activ, pCIP destab, PKA-R1A act)
Cc1ccc(S(=O)(=O)N(C)C[C@H]2OCCCC[C@H](C)Oc3ccc(NS(=O)(=O)c4c(C)noc4C)cc3C(=O)N([C@@H](C)CO)C[C@@H]2C)cc1	none (no result: Exocytosis inh, PKA-R2B activ, ABCB6 inh 2, pCIP destab, PKA-R1A act)
CC1(C)CC(=O)C=C(Nc2cc(-c3ccccc3)[nH]n2)C1	ABCB6 inh 2 47.0 | ABCB6 blocker 1 inactive
CC(=O)N(C)C[C@@H]1Oc2ncc(-c3ccccc3C)cc2C(=O)N([C@H](C)CO)C[C@@H]1C	none (no result: Exocytosis inh, PKA-R2B activ, ABCB6 inh 2, pCIP destab, PKA-R1A act)
C[C@H]1CCCCO[C@H](CN(C)C(=O)Nc2ccc3c(c2)OCO3)[C@@H](C)CN([C@@H](C)CO)C(=O)c2cc(NC(=O)c3ccncc3)ccc2O1	none (no result: Exocytosis inh, PKA-R2B activ, ABCB6 inh 2, pCIP destab, PKA-R1A act)
O=C(c1ccccc1)N1CCC(c2nc3c(nnn3Cc3ccccc3Cl)c(=O)[nH]2)CC1	none (no result: UUG fidelity) | ABCB6 blocker 1 inactive
O=C(Cc1cccs1)N1CCCC(c2nc3c(nnn3Cc3ccccc3Cl)c(=O)[nH]2)C1 (stereo not drawn)	none (no result: UUG fidelity)
O=C(c1cccs1)N1CCC(c2nc3c(nnn3Cc3ccccc3Cl)c(=O)[nH]2)CC1	none | ABCB6 blocker 1 inactive
O=C(O)c1cccc(S(=O)(=O)N2CCCC(c3nc4c(nnn4Cc4ccccc4Cl)c(=O)[nH]3)C2)c1 (stereo not drawn)	none
CCC(C)NC(=O)c1nc2c(nnn2Cc2ccccc2Cl)c(=O)[nH]1 (stereo not drawn)	none (no result: UUG fidelity)
O=C(NCc1cccs1)c1nc2c(nnn2Cc2ccccc2Cl)c(=O)[nH]1	ABCB6 inh 2 70.0 | ABCB6 blocker 1 inactive
O=C(Nc1ccccc1F)N[C@H]1C=C[C@@H](CC(=O)N2CCCCC2)O[C@@H]1CO	none (no result: Exocytosis inh, PKA-R2B activ, ABCB6 inh 2, pCIP destab, PKA-R1A act)
COc1cc(OC)cc(C(=O)NC2=NCCS2)c1	none
COc1ccc(C(=O)NC2=NCCS2)cc1	ABCB6 inh 2 74.0 (no result: UUG fidelity) | ABCB6 blocker 1 inactive
CNC[C@H]1Oc2ccc(NC(=O)Nc3ccc(OC)cc3)cc2CC(=O)N([C@H](C)CO)C[C@H]1C	none (no result: Exocytosis inh, PKA-R2B activ, ABCB6 inh 2, pCIP destab, PKA-R1A act)
COc1ccc(-c2cnc3c(c2)C(=O)N([C@H](C)CO)C[C@@H](C)[C@H](CN(C)C(=O)C2CC2)O3)cc1	none (no result: Exocytosis inh, PKA-R2B activ, ABCB6 inh 2, pCIP destab, PKA-R1A act)
Cc1nc2c(C(=O)N3CCOCC3)cnn2c(C)c1Cc1cccc(Cl)c1	none (no result: UUG fidelity, Exocytosis inh, PKA-R2B activ, ABCB6 inh 2, PKA-R1A act) | ABCB6 blocker 1 inactive
Cc1nc2c(C(=O)N3CCOCC3)cnn2c(C)c1Cc1ccc(Cl)cc1	none | ABCB6 blocker 1 inactive
O=C(c1nnc(Cc2ccc(Cl)cc2)o1)N1CCOCC1	none
O=C(c1ccc2nc(Cc3cccc(Cl)c3)oc2c1)N1CCOCC1	none
CN(C)CC(=O)Nc1ccc2c(c1)[C@@H]1C[C@@H](CC(=O)NCc3ccc(Cl)cc3)O[C@H](CO)[C@@H]1O2	none (no result: Exocytosis inh, PKA-R2B activ, ABCB6 inh 2, pCIP destab, PKA-R1A act)
O=C(NC1CCN(C(=O)Nc2cccc(Cl)c2)CC1)C1CCCCC1	none
O=C(Nc1cccc(Cl)c1)NC1CCN(C2CCCCC2)C1 (stereo not drawn)	ABCB6 inh 2 47.0 | ABCB6 blocker 1 inactive
O=C(Nc1cccc(OC(F)(F)F)c1)C1Cc2c(-c3ccc(Cl)cc3)ccnc2O1 (stereo not drawn)	none (no result: PKA-R2B activ, pCIP destab, PKA-R1A act)
O=C(Nc1cccc(OC(F)(F)F)c1)C1Cc2c(-c3ccc4c(c3)OCO4)ccnc2O1 (stereo not drawn)	none (no result: PKA-R2B activ, pCIP destab, PKA-R1A act) | ABCB6 blocker 1 inactive
O=C(Nc1cccc(Oc2ccccc2)c1)C1Cc2c(-c3ccc4c(c3)OCO4)ccnc2O1 (stereo not drawn)	none (no result: PKA-R2B activ, pCIP destab, PKA-R1A act) | ABCB6 blocker 1 inactive
Cc1noc(C)c1S(=O)(=O)Nc1cccc2c1O[C@H](CN(C)C(=O)Nc1ccc3c(c1)OCO3)[C@H](C)CN([C@H](C)CO)C2=O	none (no result: Exocytosis inh, PKA-R2B activ, ABCB6 inh 2, pCIP destab, PKA-R1A act)
CC1(C(=O)NS(=O)(=O)c2cccs2)CCN1C(=O)C1(c2ccc(Cl)cc2)CCC1 (stereo not drawn)	none (no result: PKA-R2B activ, pCIP destab, PKA-R1A act) | ABCB6 blocker 1 inactive
CC1(C(=O)NS(=O)(=O)c2cccs2)CCN1C(=O)C1(c2ccc(Cl)cc2)CC1 (stereo not drawn)	none (no result: UUG fidelity, PKA-R2B activ, pCIP destab, PKA-R1A act)
CC1(C(=O)NS(=O)(=O)c2ccccc2)CCN1C(=O)C1(c2ccccc2)CCCC1 (stereo not drawn)	none (no result: PKA-R2B activ, pCIP destab, PKA-R1A act)

Screening data from PubChem.
